According to US20150017651:

T1: GST-Gli1F2 (GST fusion of Gli1 amino acid 501 to the end), P08151
T1 chain: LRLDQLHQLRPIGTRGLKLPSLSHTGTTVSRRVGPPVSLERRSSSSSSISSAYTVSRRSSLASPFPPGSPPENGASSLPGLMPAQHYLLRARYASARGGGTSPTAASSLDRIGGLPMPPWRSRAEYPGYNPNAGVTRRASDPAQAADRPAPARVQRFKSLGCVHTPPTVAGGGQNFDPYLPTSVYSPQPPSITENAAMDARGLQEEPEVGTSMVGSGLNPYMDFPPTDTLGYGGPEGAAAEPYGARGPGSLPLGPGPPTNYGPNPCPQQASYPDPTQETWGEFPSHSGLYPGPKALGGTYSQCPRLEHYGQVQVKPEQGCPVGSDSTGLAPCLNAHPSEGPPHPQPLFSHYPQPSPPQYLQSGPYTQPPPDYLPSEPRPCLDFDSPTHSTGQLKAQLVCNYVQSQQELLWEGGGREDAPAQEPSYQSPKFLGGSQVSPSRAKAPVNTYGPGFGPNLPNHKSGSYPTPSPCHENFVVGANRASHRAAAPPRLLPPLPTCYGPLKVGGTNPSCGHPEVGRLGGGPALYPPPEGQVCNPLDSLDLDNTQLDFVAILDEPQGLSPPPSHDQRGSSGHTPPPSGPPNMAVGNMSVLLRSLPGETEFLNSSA

T2: Gli1 (wild-type, full-length), P08151
T2 chain: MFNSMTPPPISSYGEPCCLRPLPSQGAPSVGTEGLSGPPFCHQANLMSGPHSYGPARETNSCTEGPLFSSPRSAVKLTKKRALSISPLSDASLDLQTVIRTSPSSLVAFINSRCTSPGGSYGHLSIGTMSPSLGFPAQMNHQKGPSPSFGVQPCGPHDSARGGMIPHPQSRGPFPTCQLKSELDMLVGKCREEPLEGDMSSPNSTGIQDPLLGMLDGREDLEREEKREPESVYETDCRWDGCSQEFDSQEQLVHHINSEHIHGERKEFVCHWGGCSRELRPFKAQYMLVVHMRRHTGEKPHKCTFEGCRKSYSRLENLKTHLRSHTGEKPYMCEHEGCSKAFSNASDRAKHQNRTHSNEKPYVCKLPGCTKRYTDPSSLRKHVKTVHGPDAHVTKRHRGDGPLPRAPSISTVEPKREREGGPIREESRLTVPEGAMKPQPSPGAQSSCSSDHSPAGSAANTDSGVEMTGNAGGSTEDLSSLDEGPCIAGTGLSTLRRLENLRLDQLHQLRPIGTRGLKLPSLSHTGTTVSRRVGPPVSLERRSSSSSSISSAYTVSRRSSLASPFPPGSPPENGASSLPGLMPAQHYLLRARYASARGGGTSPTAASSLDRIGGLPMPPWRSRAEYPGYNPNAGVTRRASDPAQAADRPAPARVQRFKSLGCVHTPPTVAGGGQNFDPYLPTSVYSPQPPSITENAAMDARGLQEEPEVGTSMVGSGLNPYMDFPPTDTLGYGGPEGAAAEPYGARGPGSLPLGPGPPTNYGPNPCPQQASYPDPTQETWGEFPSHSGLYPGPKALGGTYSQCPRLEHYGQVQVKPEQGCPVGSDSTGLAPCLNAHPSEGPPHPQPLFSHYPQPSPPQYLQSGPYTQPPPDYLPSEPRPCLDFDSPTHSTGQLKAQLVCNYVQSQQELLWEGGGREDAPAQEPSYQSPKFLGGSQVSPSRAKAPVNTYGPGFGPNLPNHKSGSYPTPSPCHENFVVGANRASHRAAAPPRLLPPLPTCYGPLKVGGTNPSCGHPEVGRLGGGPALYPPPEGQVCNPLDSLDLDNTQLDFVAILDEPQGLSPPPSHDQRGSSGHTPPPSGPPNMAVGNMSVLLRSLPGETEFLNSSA

T3: GST-Gli1F1 (GST fusion of Gli1 amino acids 1-500), P08151
T3 chain: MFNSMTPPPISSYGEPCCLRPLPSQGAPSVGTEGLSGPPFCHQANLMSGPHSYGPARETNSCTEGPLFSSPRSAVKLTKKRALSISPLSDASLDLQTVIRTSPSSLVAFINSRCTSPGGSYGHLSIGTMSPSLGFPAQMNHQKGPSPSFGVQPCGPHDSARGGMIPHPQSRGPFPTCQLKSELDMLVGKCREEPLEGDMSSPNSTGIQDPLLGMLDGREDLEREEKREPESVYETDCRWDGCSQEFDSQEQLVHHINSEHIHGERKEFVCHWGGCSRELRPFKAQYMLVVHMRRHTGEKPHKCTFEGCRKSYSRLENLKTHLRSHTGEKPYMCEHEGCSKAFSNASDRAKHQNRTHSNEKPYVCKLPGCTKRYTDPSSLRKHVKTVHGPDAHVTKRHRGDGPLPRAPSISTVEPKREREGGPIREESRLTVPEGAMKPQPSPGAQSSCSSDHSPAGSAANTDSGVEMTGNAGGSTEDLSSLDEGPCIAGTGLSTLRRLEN


Legend:
[1] = target: T1, GST-Gli1F2 (GST fusion of Gli1 amino …)
[2] = target: T2, Gli1 (wild-type, full-length), P08151
[3] = target: T3, GST-Gli1F1 (GST fusion of Gli1 amino …)
[4] = target: GST-Gli1F1 with the alanine substitution of serine 84, P08151

Protein	in vitro kinase assay (phosphorylation of the purified GST fragment) [1]	serine/threonine phosphorylation of immunoprecipitated endogenous Gli1 (Western blot) [2]	in vitro kinase assay (phosphorylation of the purified GST fragment) [3]	in vitro kinase assay (phosphorylation of the purified GST fragment) [4]
HA-tagged wild-type S6K1 (protein) MAGVFDIDLDQPEDAGSEDELEEGGQLNESMDHGGVGPYELGMEHCEKFEISETSVNRGPEKIRPECFELLRVLGKGGYGKVFQVRKVTGANTGKIFAMKVLKKAMIVRNAKDTAHTKAERNILEEVKHPFIVDLIYAFQTGGKLYLILEYLSGGELFMQLEREGIFMEDTACFYLAEISMALGHLHQKGIIYRDLKPENIMLNHQGHVKLTDFGLCKESIHDGTVTHTFCGTIEYMAPEILMRSGHNRAVDWWSLGALMYDMLTGAPPFTGENRKKTIDKILKCKLNLPPYLTQEARDLLKKLLKRNAASRLGAGPGDAGEVQAHPFFRHINWEELLARKVEPPFKPLLQSEEDVSQFDSKFTRQTPVDSPDDSTLSESANQVFLGFTYVAPSVLESVKEKFSFEPKIRSPRRFIGSPRTPVSPVKFSPGDFWGRGASASTANPQTPVEYPMETSGIEQMDVTMSGEASAPLPIRQPNSGPYKKQAFPMISKRPEHLRMNL	only one of the Gli1 fragments containing amino acids 1-500, Gli1F1, was phosphorylated by S6K1 (Gli1F2 was not)	serine/threonine phosphorylation of Gli1 was observed with the ectopic expression of S6K1 or S6K1T389E (FIG. 3A), but neither S6K1T389A nor S6K1K100R	only one of the Gli1 fragments containing amino acids 1-500, Gli1F1, was phosphorylated by S6K1 but not by S6K1K100R	When Ser84 was mutated to alanine (Gli1S84A), phosphorylation of Gli1 by S6K1 disappeared
HA-tagged constitutively activated S6K1T389E (protein) MAGVFDIDLDQPEDAGSEDELEEGGQLNESMDHGGVGPYELGMEHCEKFEISETSVNRGPEKIRPECFELLRVLGKGGYGKVFQVRKVTGANTGKIFAMKVLKKAMIVRNAKDTAHTKAERNILEEVKHPFIVDLIYAFQTGGKLYLILEYLSGGELFMQLEREGIFMEDTACFYLAEISMALGHLHQKGIIYRDLKPENIMLNHQGHVKLTDFGLCKESIHDGTVTHTFCGTIEYMAPEILMRSGHNRAVDWWSLGALMYDMLTGAPPFTGENRKKTIDKILKCKLNLPPYLTQEARDLLKKLLKRNAASRLGAGPGDAGEVQAHPFFRHINWEELLARKVEPPFKPLLQSEEDVSQFDSKFTRQTPVDSPDDSTLSESANQVFLGFEYVAPSVLESVKEKFSFEPKIRSPRRFIGSPRTPVSPVKFSPGDFWGRGASASTANPQTPVEYPMETSGIEQMDVTMSGEASAPLPIRQPNSGPYKKQAFPMISKRPEHLRMNL	–	serine/threonine phosphorylation of Gli1 was observed with the ectopic expression of S6K1 or S6K1T389E (FIG. 3A), but neither S6K1T389A nor S6K1K100R	–	–
HA-tagged kinase-dead S6K1K100R (protein) MAGVFDIDLDQPEDAGSEDELEEGGQLNESMDHGGVGPYELGMEHCEKFEISETSVNRGPEKIRPECFELLRVLGKGGYGKVFQVRKVTGANTGKIFAMRVLKKAMIVRNAKDTAHTKAERNILEEVKHPFIVDLIYAFQTGGKLYLILEYLSGGELFMQLEREGIFMEDTACFYLAEISMALGHLHQKGIIYRDLKPENIMLNHQGHVKLTDFGLCKESIHDGTVTHTFCGTIEYMAPEILMRSGHNRAVDWWSLGALMYDMLTGAPPFTGENRKKTIDKILKCKLNLPPYLTQEARDLLKKLLKRNAASRLGAGPGDAGEVQAHPFFRHINWEELLARKVEPPFKPLLQSEEDVSQFDSKFTRQTPVDSPDDSTLSESANQVFLGFTYVAPSVLESVKEKFSFEPKIRSPRRFIGSPRTPVSPVKFSPGDFWGRGASASTANPQTPVEYPMETSGIEQMDVTMSGEASAPLPIRQPNSGPYKKQAFPMISKRPEHLRMNL	–	serine/threonine phosphorylation of Gli1 was observed with the ectopic expression of S6K1 or S6K1T389E (FIG. 3A), but neither S6K1T389A nor S6K1K100R	only one of the Gli1 fragments containing amino acids 1-500, Gli1F1, was phosphorylated by S6K1 but not by S6K1K100R	–
